Experimental findings from ChEMBL document CHEMBL3817845, “Development of CNS multi-receptor ligands: Modification of known D2 pharmacophores” (Bioorg Med Chem, 2016) are described below.

By UniProt entry, the sequences of proteins in these tests, tags left out.
UniProt P08908, whole entry: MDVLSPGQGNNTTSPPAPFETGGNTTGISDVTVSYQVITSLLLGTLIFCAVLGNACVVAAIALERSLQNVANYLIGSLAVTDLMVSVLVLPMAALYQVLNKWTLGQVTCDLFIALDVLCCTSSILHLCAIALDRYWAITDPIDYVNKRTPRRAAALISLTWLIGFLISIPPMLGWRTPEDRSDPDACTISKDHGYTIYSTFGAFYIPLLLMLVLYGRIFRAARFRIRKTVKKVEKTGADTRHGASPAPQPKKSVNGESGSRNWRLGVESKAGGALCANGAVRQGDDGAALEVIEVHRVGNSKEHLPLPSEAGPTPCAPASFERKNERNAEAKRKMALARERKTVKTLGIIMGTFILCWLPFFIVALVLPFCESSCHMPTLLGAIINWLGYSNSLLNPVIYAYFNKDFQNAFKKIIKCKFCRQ
UniProt P28223, whole entry: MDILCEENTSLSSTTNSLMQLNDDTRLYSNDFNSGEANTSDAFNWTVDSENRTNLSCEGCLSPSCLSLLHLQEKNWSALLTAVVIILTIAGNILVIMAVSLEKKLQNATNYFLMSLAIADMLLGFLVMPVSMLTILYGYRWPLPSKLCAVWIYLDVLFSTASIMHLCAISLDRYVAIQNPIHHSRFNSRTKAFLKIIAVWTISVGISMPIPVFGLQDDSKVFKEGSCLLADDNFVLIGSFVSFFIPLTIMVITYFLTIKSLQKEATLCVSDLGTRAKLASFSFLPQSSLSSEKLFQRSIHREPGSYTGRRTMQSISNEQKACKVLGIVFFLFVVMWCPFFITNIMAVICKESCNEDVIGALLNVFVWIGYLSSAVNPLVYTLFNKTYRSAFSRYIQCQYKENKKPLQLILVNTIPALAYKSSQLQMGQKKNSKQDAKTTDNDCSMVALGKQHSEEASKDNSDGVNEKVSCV

Assay [1] addresses 5-hydroxytryptamine receptor 1A (Homo sapiens, UniProt P08908). The assay is described as follows: Displacement of [3H]8-OH-DPAT from human recombinant 5HT1A receptor incubated for […] by microbeta scintillation counting method.
For assay [2], the target named is 5-hydroxytryptamine receptor 2A (Homo sapiens, UniProt P28223). The assay is described as follows: Displacement of [3H]Ketanserin from human recombinant 5HT2A receptor incubated for […] by microbeta scintillation counting method.
Also: test concentration or dose not given here.

Take `O=c1[nH]c2cc(Cl)ccc2n1C1CCN(CCCCc2c[nH]c3ccccc23)CC1`: the inhibition in assay [1] and in assay [2] was less than 50% throughout.
